## Antibody variant affinities, Ab-91 heavy chain, assay 2

Reference: Engelhart et al. 2022, doi:10.1038/s41597-022-01779-4. File: FLAb, binding data.

The target is the same throughout: PDVDLGDISGINAS, from the HR2 region of SARS-CoV-2 spike.

Parent scFv Ab-91: VL joined to VH by a 15-residue (Gly4Ser)3 linker. Changes lie in the heavy chain CDRs alone.
VL: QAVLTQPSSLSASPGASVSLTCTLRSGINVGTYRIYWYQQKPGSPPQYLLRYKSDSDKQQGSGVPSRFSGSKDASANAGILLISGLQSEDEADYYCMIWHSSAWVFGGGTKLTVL
VH: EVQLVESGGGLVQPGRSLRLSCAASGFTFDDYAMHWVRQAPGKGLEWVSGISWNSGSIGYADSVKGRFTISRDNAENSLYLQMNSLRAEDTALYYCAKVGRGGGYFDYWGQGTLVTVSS

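The parent was found by panning a naive human phage display library on the peptide. Variants in AAYL51 differ from the parent at up to three CDR positions; double and triple changes were sampled at random. Affinity was read by AlphaSeq, a pooled yeast mating assay with surface-displayed partners. The frequency of each diploid, read from paired DNA barcodes, reflects how well the two displayed proteins bind. Scores were corrected for input abundance and mapped to Kd with protein pairs of known affinity run in the same pool. Mating was done three times.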

Changes read parent residue, position, new residue, counted from the first residue of the VH shown. This list gathers variants with a substitution at G104 (VH, numbered from residue 1). Scale: log10 of Kd in nM, estimated from mating counts; low values are strong binders. Averages over replicates are reported, and they cover detected replicates only. A pair that was not seen in that replicate is written "ND"; this usually means weak binding, but a binder can also be missed.

changes	log10 Kd, replicates	mean log10 Kd (nM)	signal with controls
W53G+G59W+G104N	ND ND ND	ND	0/9
A61T+V64D+G104H	ND ND ND	ND	0/9
G102V+G104Y	1.03 1.01 0.62	0.88	0/9
A61G+G104Y+D107L	4.37 ND ND	4.37	2/9 (3.56)
G26D+K65L+G104E	ND ND ND	ND	1/9 (3.62)
G26K+G104Q+D107S	3.66 4.20 ND	3.93	0/9
T28K+G102D+G104K	4.80 4.73 5.85	5.13	8/9 (4.97)
D31M+S57F+G104T	3.98 4.14 ND	4.06	6/9 (5.05)
G59L+G104K	4.69 5.54 ND	5.12	6/9 (5.15)
I58Y+G104Y	3.81 ND ND	3.81	3/9 (4.05)
Y60E+G104D+Y108G	ND ND ND	ND	1/9 (4.31)
G100H+G104A+F106I	1.47 1.43 1.18	1.36	5/9 (4.19)
D30E+G102Q+G104Y	5.30 5.43 ND	5.36	5/9 (4.88)
T28L+G56M+G104L	ND ND ND	ND	1/9 (4.78)
H35R+G103C+G104Q	ND ND ND	ND	0/9
S63D+G104Q	ND ND ND	ND	0/9
S55Q+S63D+G104T	4.96 ND ND	4.96	3/9 (4.24)
S55E+R101T+G104I	5.85 4.74 ND	5.30	4/9 (4.54)
H35F+G100V+G104I	5.00 ND ND	5.00	5/9 (4.83)
D62G+V64C+G104W	4.18 ND ND	4.18	4/9 (5.00)
F27H+G104L+D107R	ND ND ND	ND	2/9 (3.81)
F27K+I58F+G104L	ND ND ND	ND	0/9
V64F+K65L+G104L	3.48 3.58 2.90	3.32	2/9 (4.48)
G100T+G102L+G104C	4.49 4.54 ND	4.51	3/9 (3.81)
H35T+G102L+G104K	ND 4.13 ND	4.13	0/9
Y32I+G59A+G104P	3.43 ND ND	3.43	4/9 (4.15)
V64A+G102M+G104D	ND ND ND	ND	0/9
W53I+G56T+G104V	4.55 ND ND	4.55	0/9
N54V+G104Q	4.25 ND ND	4.25	3/9 (4.49)
K65N+G100A+G104N	ND ND ND	ND	0/9
G104P	3.16 2.84 3.30	3.10	6/9 (5.20)
W53R+V64R+G104H	ND ND ND	ND	1/9 (3.27)
W53R+G104V	ND ND ND	ND	0/9
G26I+G104T	3.91 5.07 4.67	4.55	2/9 (4.78)
G26S+D62S+G104T	ND ND ND	ND	0/9
S55I+G104N	ND ND ND	ND	1/9 (3.83)
W53V+G102C+G104M	ND 5.25 ND	5.25	3/9 (5.43)
F29C+S52H+G104W	ND ND ND	ND	0/9
T28N+I58W+G104F	ND ND ND	ND	1/9 (2.28)
G56Y+G104H	ND ND ND	ND	3/9 (4.38)
D62V+R101Y+G104V	ND ND ND	ND	0/9
H35S+G59Y+G104A	3.75 ND ND	3.75	2/9 (4.93)
Y60T+G104V	2.08 1.97 1.96	2.00	2/9 (4.12)
D31T+G102P+G104R	3.30 2.12 1.67	2.36	0/9
A33H+W53Q+G104L	ND ND ND	ND	0/9
Y60Q+G100W+G104H	ND ND 4.96	4.96	1/9 (4.26)
S52D+G103D+G104P	ND ND ND	ND	1/9 (3.60)
S57R+G104S	4.84 4.98 5.17	4.99	9/9 (4.92)
D30Y+G104K+D107V	ND ND ND	ND	1/9 (4.48)
F27I+G104K+F106G	ND ND ND	ND	1/9 (3.62)
G26S+G104W+F106T	ND ND ND	ND	0/9

The last 5 entries again:

changes,"log10 Kd, replicates",mean log10 Kd (nM),signal with controls
S52D+G103D+G104P,ND ND ND,ND,1/9 (3.60)
S57R+G104S,4.84 4.98 5.17,4.99,9/9 (4.92)
D30Y+G104K+D107V,ND ND ND,ND,1/9 (4.48)
F27I+G104K+F106G,ND ND ND,ND,1/9 (3.62)
G26S+G104W+F106T,ND ND ND,ND,0/9

Parent in this assay: reference entry 1.86, copy in this library 0.88. Nonspecific signal, from three strains lacking the peptide, appeared in 21% of pairings of library AAYL51, centred on 4.54 (5% of these signals below 3.26); values are not corrected for it. Also given: how often the same scFv was detected with the empty control strains, with their mean in brackets.